Results reported in ChEMBL document CHEMBL1124488 (J Med Chem, 1989).

The chains behind the UniProt entries cited, without tags or fusion partners.
UniProt P97266, whole entry: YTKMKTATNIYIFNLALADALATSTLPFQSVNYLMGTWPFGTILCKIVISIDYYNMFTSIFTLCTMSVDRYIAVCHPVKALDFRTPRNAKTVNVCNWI
UniProt P41144, whole entry: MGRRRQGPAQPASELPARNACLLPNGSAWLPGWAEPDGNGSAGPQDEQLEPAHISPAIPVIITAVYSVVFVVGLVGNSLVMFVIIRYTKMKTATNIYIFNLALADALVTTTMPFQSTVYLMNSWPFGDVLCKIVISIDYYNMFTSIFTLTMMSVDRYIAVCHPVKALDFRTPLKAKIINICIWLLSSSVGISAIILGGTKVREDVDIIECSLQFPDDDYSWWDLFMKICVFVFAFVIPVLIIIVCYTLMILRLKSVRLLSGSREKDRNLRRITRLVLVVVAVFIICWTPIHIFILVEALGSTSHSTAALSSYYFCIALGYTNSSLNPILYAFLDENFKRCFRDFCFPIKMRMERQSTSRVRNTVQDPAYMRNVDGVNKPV

How the values were obtained:
Mu-type opioid receptor = Mu-type opioid receptor (Cavia porcellus, UniProt P97266); assay: Inhibitory activity against opioid receptor mu of guinea pig brain using [3H]DAGO radioligand
[1] = biological target: Kappa-type opioid receptor (Cavia porcellus, UniProt P41144); assay: Binding inhibition against opioid receptor kappa of guinea pig was determined using [3H]ethylketocyclazocine
Mus musculus = assay: In vivo evaluation for analgesia 30 minutes after subcutaneous administration in mouse phenylquinone writhing assay

Row | Compound | IC50 (Mu-type opioid receptor) [nM] | IC50 [1] [nM] | ED50 (Mus musculus) [mg/kg]
1 | COc1ccc(C(=O)N[C@H]2CCCC[C@@]23CCCN3C)cc1 | 2200 | > 10000 | –
2 | CN(C(=O)c1ccc(C(F)(F)F)cc1)[C@H]1CCCC[C@@]12CCCN2C | – | 670 | –
3 | CN1CCC[C@@]12CCCC[C@@H]2NC(=O)c1ccc(Cl)c(Cl)c1 | 210 | > 10000 | 7.14
4 | CN(C(=O)c1ccc(Br)c(Br)c1)[C@H]1CCCC[C@@]12CCCN2C | – | 105 | –
5 | CN(C(=O)c1ccc(Br)cc1Cl)[C@H]1CCCC[C@@]12CCCN2C | – | > 10000 | –
6 | CN(C(=O)c1ccc(Cl)c(Cl)c1)[C@H]1CCCC[C@@]12CCCN2C | – | 309 | –
7 | Cc1cc(Br)ccc1C(=O)N(C)[C@H]1CCCC[C@@]12CCCN2C | – | 880 | –
8 | Cc1ccc(C(=O)N(C)[C@H]2CCCC[C@@]23CCCN3C)cc1 | 150 | > 10000 | –
9 | CN1CCC[C@@]12CCCC[C@@H]2N(CC1CC1)C(=O)c1ccc(Br)cc1 | 220 | 2800 | –
10 | CN1CCC[C@@]12CCCC[C@@H]2NC(=O)c1cccc(Br)c1 | > 10000 | > 10000 | –
11 | CN1CCC[C@@]12CCCC[C@@H]2NC(=O)c1ccc(Br)cc1 | 600 | > 10000 | –
12 | CN(C(=O)c1ccc(Br)cc1)[C@H]1CCCC[C@@]12CCCN2C | – | 670 | –
13 | CN1CCC[C@@]12CCCC[C@@H]2NC(=O)c1ccccc1Br | > 10000 | > 10000 | –
14 | CN1CCC[C@@]12CCCC[C@@H]2NC(=O)c1ccc(Br)cc1.Cl | – | – | 3.28
15 | CC(C)CN(C(=O)c1ccc(Br)cc1)[C@H]1CCCC[C@@]12CCCN2C | 580 | > 10000 | –
16 | CN1CCC[C@@]12CCCC[C@@H]2NC(=O)c1ccc(F)cc1 | > 10000 | > 10000 | –
17 | CN1CCC[C@@]12CCCC[C@@H]2NC(=O)c1ccc(Cl)cc1 | 550 | > 10000 | –
